What was measured:
[1] = system: ALK tyrosine kinase receptor (Homo sapiens), Q9UM73 [G1202R]; experiment: Potency index, ratio of IC50 of ceritinib to IC50 of compound for inhibition of recombinant human N-terminal GST-tagged ALK (1058 to 1620 residues) cytoplasmic domain G1202R mutant expressed in baculovirus expression system using srctide as substrate incubated for 1 hr by mobility shift assay
[2] = system: ALK tyrosine kinase receptor (Homo sapiens), Q9UM73 [L1196M]; experiment: Potency index, ratio of IC50 of ceritinib to IC50 of compound for inhibition of recombinant human N-terminal GST-tagged ALK (1058 to 1620 residues) cytoplasmic domain expressed in baculovirus expression system L1196M mutant using srctide as substrate incubated for 1 hr by mobility shift assay
[3] = molecular target: Proto-oncogene tyrosine-protein kinase ROS (Homo sapiens, UniProt P08922); experiment: Potency index, ratio of IC50 of ceritinib to IC50 of compound for inhibition of recombinant human N-terminal GST-tagged ROS (1883 to 2347 residues) cytoplasmic domain expressed in baculovirus expression system using IRS1 as substrate incubated for 1 hr by mobility shift assay

Chains of the proteins cited; added tags and fusions are not shown. Lines headed by an entry give the natural chain unless they say otherwise; changes in a name come on top.
ALK tyrosine kinase receptor (Homo sapiens), Q9UM73, UniProt Q9UM73, whole entry G1202R: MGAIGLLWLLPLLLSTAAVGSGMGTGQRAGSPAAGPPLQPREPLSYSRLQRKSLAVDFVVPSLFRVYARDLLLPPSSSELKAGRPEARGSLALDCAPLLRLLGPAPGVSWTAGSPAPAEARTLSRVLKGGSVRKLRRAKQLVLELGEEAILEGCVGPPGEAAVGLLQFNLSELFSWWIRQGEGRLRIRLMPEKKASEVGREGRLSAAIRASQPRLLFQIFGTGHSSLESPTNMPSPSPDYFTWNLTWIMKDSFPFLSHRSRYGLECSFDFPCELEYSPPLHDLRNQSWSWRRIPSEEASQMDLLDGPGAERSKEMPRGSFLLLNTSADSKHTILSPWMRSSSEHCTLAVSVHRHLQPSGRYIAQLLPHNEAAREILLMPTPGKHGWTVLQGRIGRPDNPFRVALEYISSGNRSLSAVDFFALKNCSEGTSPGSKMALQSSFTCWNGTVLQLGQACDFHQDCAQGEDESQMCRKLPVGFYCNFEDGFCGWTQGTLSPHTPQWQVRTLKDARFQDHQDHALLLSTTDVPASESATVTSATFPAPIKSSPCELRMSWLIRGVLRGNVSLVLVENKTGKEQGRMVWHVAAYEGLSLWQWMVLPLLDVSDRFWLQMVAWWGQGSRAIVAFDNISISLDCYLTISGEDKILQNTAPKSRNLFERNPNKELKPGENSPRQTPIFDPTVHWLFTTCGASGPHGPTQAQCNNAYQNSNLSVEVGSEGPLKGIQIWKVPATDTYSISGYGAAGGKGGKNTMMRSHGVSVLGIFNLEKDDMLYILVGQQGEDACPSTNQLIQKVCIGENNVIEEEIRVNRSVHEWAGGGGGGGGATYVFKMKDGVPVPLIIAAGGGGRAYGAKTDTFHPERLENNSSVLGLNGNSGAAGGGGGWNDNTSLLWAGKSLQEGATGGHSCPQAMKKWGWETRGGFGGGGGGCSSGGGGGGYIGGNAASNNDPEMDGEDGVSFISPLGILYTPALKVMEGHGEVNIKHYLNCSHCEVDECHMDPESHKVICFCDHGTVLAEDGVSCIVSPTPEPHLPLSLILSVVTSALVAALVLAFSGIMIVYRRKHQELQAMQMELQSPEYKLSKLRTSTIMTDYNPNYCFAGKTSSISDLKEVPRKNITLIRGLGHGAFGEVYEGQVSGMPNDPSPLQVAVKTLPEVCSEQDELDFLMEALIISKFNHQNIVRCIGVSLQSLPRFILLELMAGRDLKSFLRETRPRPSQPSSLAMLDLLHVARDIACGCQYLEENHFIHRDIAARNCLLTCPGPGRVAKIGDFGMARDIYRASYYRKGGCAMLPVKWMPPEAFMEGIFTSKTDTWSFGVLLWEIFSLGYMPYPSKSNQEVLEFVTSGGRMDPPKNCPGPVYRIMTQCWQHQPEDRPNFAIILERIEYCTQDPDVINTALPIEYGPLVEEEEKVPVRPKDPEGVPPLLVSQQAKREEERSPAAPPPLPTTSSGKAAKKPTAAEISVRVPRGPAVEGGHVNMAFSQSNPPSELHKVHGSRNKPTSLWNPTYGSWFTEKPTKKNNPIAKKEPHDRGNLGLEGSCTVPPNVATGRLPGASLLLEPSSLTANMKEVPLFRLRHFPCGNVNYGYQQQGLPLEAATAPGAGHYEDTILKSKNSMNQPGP
ALK tyrosine kinase receptor (Homo sapiens), Q9UM73, UniProt Q9UM73, whole entry L1196M, looked up: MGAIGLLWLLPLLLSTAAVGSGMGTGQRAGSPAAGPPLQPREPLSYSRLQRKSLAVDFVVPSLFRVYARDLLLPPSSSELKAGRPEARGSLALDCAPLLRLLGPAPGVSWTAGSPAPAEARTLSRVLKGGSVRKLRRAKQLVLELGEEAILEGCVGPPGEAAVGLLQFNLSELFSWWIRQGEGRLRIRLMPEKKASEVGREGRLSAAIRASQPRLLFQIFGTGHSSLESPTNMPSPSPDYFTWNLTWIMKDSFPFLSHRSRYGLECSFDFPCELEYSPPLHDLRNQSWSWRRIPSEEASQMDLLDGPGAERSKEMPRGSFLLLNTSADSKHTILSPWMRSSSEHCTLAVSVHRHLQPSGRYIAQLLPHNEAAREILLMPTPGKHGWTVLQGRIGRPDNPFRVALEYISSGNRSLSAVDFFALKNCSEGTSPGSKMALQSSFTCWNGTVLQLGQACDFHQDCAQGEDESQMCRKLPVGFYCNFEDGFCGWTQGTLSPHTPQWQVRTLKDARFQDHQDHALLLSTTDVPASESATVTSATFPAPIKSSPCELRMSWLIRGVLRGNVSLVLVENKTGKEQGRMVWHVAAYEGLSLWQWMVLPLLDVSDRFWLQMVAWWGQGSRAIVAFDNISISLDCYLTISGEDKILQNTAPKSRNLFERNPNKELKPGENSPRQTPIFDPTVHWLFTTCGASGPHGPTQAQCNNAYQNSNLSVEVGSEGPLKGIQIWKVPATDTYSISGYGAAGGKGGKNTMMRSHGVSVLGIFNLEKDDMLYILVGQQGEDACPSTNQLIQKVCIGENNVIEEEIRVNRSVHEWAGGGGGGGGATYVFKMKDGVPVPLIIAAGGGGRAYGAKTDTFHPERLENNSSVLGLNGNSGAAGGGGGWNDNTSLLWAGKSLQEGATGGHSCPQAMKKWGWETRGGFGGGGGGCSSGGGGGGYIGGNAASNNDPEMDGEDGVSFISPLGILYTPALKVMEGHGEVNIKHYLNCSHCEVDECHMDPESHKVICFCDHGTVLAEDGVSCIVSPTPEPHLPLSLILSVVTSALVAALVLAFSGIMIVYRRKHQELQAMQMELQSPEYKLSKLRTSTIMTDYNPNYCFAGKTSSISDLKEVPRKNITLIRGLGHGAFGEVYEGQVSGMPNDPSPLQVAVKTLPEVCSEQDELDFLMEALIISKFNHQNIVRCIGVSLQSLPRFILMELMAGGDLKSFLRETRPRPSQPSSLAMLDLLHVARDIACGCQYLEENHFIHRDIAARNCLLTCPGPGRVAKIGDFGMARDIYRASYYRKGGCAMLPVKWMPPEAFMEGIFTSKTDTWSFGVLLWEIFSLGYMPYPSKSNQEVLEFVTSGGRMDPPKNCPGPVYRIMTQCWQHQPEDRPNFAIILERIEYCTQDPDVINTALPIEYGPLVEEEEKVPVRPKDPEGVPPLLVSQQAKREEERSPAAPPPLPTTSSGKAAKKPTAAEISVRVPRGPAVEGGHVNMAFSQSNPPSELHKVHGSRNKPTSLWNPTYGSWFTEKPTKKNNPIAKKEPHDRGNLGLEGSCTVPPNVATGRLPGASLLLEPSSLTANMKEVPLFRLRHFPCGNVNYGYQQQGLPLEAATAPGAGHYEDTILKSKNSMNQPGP
UniProt P08922: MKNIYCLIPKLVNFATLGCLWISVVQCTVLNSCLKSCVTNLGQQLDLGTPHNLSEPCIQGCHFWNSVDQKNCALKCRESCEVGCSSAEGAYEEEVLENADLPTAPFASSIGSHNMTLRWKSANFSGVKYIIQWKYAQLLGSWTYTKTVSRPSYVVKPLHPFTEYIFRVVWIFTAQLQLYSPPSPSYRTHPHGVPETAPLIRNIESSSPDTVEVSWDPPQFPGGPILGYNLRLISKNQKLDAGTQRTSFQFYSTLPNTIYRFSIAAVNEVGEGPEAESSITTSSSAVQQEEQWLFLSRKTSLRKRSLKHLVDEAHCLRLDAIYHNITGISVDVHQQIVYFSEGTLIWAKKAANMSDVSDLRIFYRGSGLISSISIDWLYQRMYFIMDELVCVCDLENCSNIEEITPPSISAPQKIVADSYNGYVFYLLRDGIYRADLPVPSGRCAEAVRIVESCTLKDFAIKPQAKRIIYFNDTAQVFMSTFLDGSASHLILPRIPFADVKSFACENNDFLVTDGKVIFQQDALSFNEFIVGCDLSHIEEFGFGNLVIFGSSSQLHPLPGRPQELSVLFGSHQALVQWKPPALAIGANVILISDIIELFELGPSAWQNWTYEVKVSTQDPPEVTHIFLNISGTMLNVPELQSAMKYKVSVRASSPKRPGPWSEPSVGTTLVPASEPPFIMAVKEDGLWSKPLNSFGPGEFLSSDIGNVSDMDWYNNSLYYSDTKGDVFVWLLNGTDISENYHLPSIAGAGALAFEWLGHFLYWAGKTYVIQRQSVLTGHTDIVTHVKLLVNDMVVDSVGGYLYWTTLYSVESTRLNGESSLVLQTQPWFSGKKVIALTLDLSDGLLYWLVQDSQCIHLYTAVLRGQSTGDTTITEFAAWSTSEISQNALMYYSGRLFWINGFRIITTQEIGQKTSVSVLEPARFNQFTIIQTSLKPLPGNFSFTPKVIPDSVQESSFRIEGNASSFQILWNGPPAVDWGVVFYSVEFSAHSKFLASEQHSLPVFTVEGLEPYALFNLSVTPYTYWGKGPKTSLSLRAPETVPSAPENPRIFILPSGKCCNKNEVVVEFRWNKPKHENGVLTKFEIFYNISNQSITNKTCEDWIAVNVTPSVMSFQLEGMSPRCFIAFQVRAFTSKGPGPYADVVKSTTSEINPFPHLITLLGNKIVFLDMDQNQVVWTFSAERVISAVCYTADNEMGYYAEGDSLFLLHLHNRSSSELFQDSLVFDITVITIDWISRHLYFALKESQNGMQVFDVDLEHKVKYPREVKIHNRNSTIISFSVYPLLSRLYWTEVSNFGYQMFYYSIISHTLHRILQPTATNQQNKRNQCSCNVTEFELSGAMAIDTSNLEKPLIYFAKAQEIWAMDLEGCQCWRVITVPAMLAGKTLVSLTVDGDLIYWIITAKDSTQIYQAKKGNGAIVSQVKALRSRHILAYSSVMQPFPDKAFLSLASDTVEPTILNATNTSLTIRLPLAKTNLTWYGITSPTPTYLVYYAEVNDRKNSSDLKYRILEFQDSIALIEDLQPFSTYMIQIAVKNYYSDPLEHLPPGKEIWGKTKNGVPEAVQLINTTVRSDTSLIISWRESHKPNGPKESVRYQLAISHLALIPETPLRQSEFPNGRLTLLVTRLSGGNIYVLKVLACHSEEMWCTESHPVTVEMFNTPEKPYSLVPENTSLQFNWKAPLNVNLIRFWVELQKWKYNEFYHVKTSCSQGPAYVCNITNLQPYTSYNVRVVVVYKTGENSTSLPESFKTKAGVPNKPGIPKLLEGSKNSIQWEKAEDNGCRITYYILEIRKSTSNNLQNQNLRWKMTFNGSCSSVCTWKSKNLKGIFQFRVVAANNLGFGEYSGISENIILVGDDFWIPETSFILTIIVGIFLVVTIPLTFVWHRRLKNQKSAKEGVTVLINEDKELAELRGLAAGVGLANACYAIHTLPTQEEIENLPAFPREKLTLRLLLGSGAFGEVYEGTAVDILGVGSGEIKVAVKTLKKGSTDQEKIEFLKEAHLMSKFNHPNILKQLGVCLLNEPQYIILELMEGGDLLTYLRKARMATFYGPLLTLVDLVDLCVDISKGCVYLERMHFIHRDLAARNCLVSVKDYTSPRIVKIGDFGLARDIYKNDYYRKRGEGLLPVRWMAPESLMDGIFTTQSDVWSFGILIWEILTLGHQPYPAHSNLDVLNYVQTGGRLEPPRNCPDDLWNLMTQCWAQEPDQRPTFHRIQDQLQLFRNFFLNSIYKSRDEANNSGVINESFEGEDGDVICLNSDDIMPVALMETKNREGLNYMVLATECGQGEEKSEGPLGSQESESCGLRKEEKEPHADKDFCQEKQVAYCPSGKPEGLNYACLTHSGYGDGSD

SMILES: COc1cc(NC(=O)N2CCOCC2)ccc1Nc1ncc(Cl)c(Nc2ccccc2NC(C)=O)n1
- Ratio IC50 [1]: 45
- Ratio IC50 [2]: 3.4
- Ratio IC50 [3]: 5.9
